Reference: article PMC2362153, “Increased accumulation of doxorubicin and doxorubicinol in cardiac tissue of mice lacking mdr1a P-glycoprotein” (British Journal of Cancer, 1999)

Assay: Tissue distribution of doxorubicin and metabolites in wild-type and mdr1a(-/-) mice (HPLC)
From the text: Blank human plasma was obtained from healthy donors. […] All biological specimens were stored at -20C until analysis. […] However, […]

Structure (SMILES): COc1cccc2c1C(=O)c1c(O)c3c(c(O)c1C2=O)C[C@@](O)(C(=O)CO)C[C@@H]3O[C@H]1C[C@H](N)[C@H](O)[C@H](C)O1 [doxorubicin]
- Tissue level (brain, 1 h after i.v. 5 mg kg-1 doxorubicin, mdr1a(-/-) mice): 0.28 nmol g-1 tissue
- Tissue level (brain, 1 h after i.v. 5 mg kg-1 doxorubicin, wild-type mice): 0.10 nmol g-1 tissue
- Tissue level (brain, 4 h after i.v. 5 mg kg-1 doxorubicin, mdr1a(-/-) mice): 0.33 nmol g-1 tissue
- Tissue level (brain, 4 h after i.v. 5 mg kg-1 doxorubicin, wild-type mice): 0.12 nmol g-1 tissue
- Tissue level (brain, 24 h after i.v. 5 mg kg-1 doxorubicin, mdr1a(-/-) mice): 0.21 nmol g-1 tissue
- Tissue level (brain, 24 h after i.v. 5 mg kg-1 doxorubicin, wild-type mice): 0.06 nmol g-1 tissue
- Tissue level (breast, 1 h after i.v. 5 mg kg-1 doxorubicin, mdr1a(-/-) mice): 6.46 nmol g-1 tissue
- Tissue level (breast, 1 h after i.v. 5 mg kg-1 doxorubicin, wild-type mice): 5.71 nmol g-1 tissue
- Tissue level (breast, 4 h after i.v. 5 mg kg-1 doxorubicin, mdr1a(-/-) mice): 7.11 nmol g-1 tissue
- Tissue level (breast, 4 h after i.v. 5 mg kg-1 doxorubicin, wild-type mice): 4.25 nmol g-1 tissue
- Tissue level (breast, 24 h after i.v. 5 mg kg-1 doxorubicin, mdr1a(-/-) mice): 5.42 nmol g-1 tissue
- Tissue level (breast, 24 h after i.v. 5 mg kg-1 doxorubicin, wild-type mice): 1.47 nmol g-1 tissue
- Tissue level (caecum, 1 h after i.v. 5 mg kg-1 doxorubicin, mdr1a(-/-) mice): 9.64 nmol g-1 tissue
- Tissue level (caecum, 1 h after i.v. 5 mg kg-1 doxorubicin, wild-type mice): 7.95 nmol g-1 tissue
- Tissue level (caecum, 4 h after i.v. 5 mg kg-1 doxorubicin, mdr1a(-/-) mice): 11.3 nmol g-1 tissue
- Tissue level (caecum, 4 h after i.v. 5 mg kg-1 doxorubicin, wild-type mice): 9.84 nmol g-1 tissue
- Tissue level (caecum, 24 h after i.v. 5 mg kg-1 doxorubicin, mdr1a(-/-) mice): 6.96 nmol g-1 tissue
- Tissue level (caecum, 24 h after i.v. 5 mg kg-1 doxorubicin, wild-type mice): 2.81 nmol g-1 tissue
- Tissue level (colon, 1 h after i.v. 5 mg kg-1 doxorubicin, mdr1a(-/-) mice): 9.65 nmol g-1 tissue
- Tissue level (colon, 1 h after i.v. 5 mg kg-1 doxorubicin, wild-type mice): 8.17 nmol g-1 tissue
- Tissue level (colon, 4 h after i.v. 5 mg kg-1 doxorubicin, mdr1a(-/-) mice): 12.6 nmol g-1 tissue
- Tissue level (colon, 4 h after i.v. 5 mg kg-1 doxorubicin, wild-type mice): 13.0 nmol g-1 tissue
- Tissue level (colon, 24 h after i.v. 5 mg kg-1 doxorubicin, mdr1a(-/-) mice): 7.70 nmol g-1 tissue
- Tissue level (colon, 24 h after i.v. 5 mg kg-1 doxorubicin, wild-type mice): 2.99 nmol g-1 tissue
- Tissue level (heart, 1 h after i.v. 5 mg kg-1 doxorubicin, mdr1a(-/-) mice): 23.6 nmol g-1 tissue
- Tissue level (heart, 1 h after i.v. 5 mg kg-1 doxorubicin, wild-type mice): 21.5 nmol g-1 tissue
- Tissue level (heart, 4 h after i.v. 5 mg kg-1 doxorubicin, mdr1a(-/-) mice): 13.7 nmol g-1 tissue
- Tissue level (heart, 4 h after i.v. 5 mg kg-1 doxorubicin, wild-type mice): 12.6 nmol g-1 tissue
- Tissue level (heart, 24 h after i.v. 5 mg kg-1 doxorubicin, wild-type mice): 1.69 nmol g-1 tissue
- Tissue level (kidney, 1 h after i.v. 5 mg kg-1 doxorubicin, mdr1a(-/-) mice): 33.2 nmol g-1 tissue
- Tissue level (kidney, 4 h after i.v. 5 mg kg-1 doxorubicin, mdr1a(-/-) mice): 21.6 nmol g-1 tissue
- Tissue level (kidney, 4 h after i.v. 5 mg kg-1 doxorubicin, wild-type mice): 22.3 nmol g-1 tissue
- Tissue level (kidney, 24 h after i.v. 5 mg kg-1 doxorubicin, mdr1a(-/-) mice): 9.05 nmol g-1 tissue
- Tissue level (kidney, 24 h after i.v. 5 mg kg-1 doxorubicin, wild-type mice): 5.68 nmol g-1 tissue
- Tissue level (liver, 1 h after i.v. 5 mg kg-1 doxorubicin, mdr1a(-/-) mice): 44.7 nmol g-1 tissue
- Tissue level (liver, 1 h after i.v. 5 mg kg-1 doxorubicin, wild-type mice): 20.6 nmol g-1 tissue
- Tissue level (liver, 4 h after i.v. 5 mg kg-1 doxorubicin, mdr1a(-/-) mice): 45.3 nmol g-1 tissue
- Tissue level (liver, 4 h after i.v. 5 mg kg-1 doxorubicin, wild-type mice): 10.2 nmol g-1 tissue
- Tissue level (liver, 24 h after i.v. 5 mg kg-1 doxorubicin, mdr1a(-/-) mice): 13.6 nmol g-1 tissue
- Tissue level (liver, 24 h after i.v. 5 mg kg-1 doxorubicin, wild-type mice): 1.69 nmol g-1 tissue
- Tissue level (lung, 1 h after i.v. 5 mg kg-1 doxorubicin, mdr1a(-/-) mice): 25.3 nmol g-1 tissue
- Tissue level (lung, 1 h after i.v. 5 mg kg-1 doxorubicin, wild-type mice): 23.3 nmol g-1 tissue
- Tissue level (lung, 4 h after i.v. 5 mg kg-1 doxorubicin, mdr1a(-/-) mice): 24.5 nmol g-1 tissue
- Tissue level (lung, 4 h after i.v. 5 mg kg-1 doxorubicin, wild-type mice): 23.4 nmol g-1 tissue
- Tissue level (lung, 24 h after i.v. 5 mg kg-1 doxorubicin, mdr1a(-/-) mice): 18.9 nmol g-1 tissue
- Tissue level (lung, 24 h after i.v. 5 mg kg-1 doxorubicin, wild-type mice): 5.05 nmol g-1 tissue
- Tissue level (muscle, 1 h after i.v. 5 mg kg-1 doxorubicin, mdr1a(-/-) mice): 6.03 nmol g-1 tissue
- Tissue level (muscle, 1 h after i.v. 5 mg kg-1 doxorubicin, wild-type mice): 6.95 nmol g-1 tissue
- Tissue level (muscle, 4 h after i.v. 5 mg kg-1 doxorubicin, mdr1a(-/-) mice): 6.58 nmol g-1 tissue
- Tissue level (muscle, 4 h after i.v. 5 mg kg-1 doxorubicin, wild-type mice): 7.92 nmol g-1 tissue
- Tissue level (muscle, 24 h after i.v. 5 mg kg-1 doxorubicin, mdr1a(-/-) mice): 1.88 nmol g-1 tissue
- Tissue level (muscle, 24 h after i.v. 5 mg kg-1 doxorubicin, wild-type mice): 1.35 nmol g-1 tissue
- Tissue level (ovary, 1 h after i.v. 5 mg kg-1 doxorubicin, mdr1a(-/-) mice): 9.58 nmol g-1 tissue
- Tissue level (ovary, 1 h after i.v. 5 mg kg-1 doxorubicin, wild-type mice): 7.41 nmol g-1 tissue
- Tissue level (ovary, 4 h after i.v. 5 mg kg-1 doxorubicin, mdr1a(-/-) mice): 9.15 nmol g-1 tissue
- Tissue level (ovary, 4 h after i.v. 5 mg kg-1 doxorubicin, wild-type mice): 6.74 nmol g-1 tissue
- Tissue level (ovary, 24 h after i.v. 5 mg kg-1 doxorubicin, mdr1a(-/-) mice): 5.85 nmol g-1 tissue
- Tissue level (ovary, 24 h after i.v. 5 mg kg-1 doxorubicin, wild-type mice): 4.76 nmol g-1 tissue
- Tissue level (small gut, 1 h after i.v. 5 mg kg-1 doxorubicin, mdr1a(-/-) mice): 17.5 nmol g-1 tissue
- Tissue level (small gut, 1 h after i.v. 5 mg kg-1 doxorubicin, wild-type mice): 14.2 nmol g-1 tissue
- Tissue level (small gut, 4 h after i.v. 5 mg kg-1 doxorubicin, mdr1a(-/-) mice): 18.7 nmol g-1 tissue
- Tissue level (small gut, 4 h after i.v. 5 mg kg-1 doxorubicin, wild-type mice): 14.6 nmol g-1 tissue
- Tissue level (small gut, 24 h after i.v. 5 mg kg-1 doxorubicin, mdr1a(-/-) mice): 13.0 nmol g-1 tissue
- Tissue level (small gut, 24 h after i.v. 5 mg kg-1 doxorubicin, wild-type mice): 3.56 nmol g-1 tissue
- Tissue level (spleen, 1 h after i.v. 5 mg kg-1 doxorubicin, mdr1a(-/-) mice): 18.9 nmol g-1 tissue
- Tissue level (spleen, 1 h after i.v. 5 mg kg-1 doxorubicin, wild-type mice): 16.6 nmol g-1 tissue
- Tissue level (spleen, 4 h after i.v. 5 mg kg-1 doxorubicin, mdr1a(-/-) mice): 22.5 nmol g-1 tissue
- Tissue level (spleen, 4 h after i.v. 5 mg kg-1 doxorubicin, wild-type mice): 23.7 nmol g-1 tissue
- Tissue level (spleen, 24 h after i.v. 5 mg kg-1 doxorubicin, mdr1a(-/-) mice): 29.2 nmol g-1 tissue
- Tissue level (spleen, 24 h after i.v. 5 mg kg-1 doxorubicin, wild-type mice): 16.6 nmol g-1 tissue
- Tissue level (stomach, 1 h after i.v. 5 mg kg-1 doxorubicin, mdr1a(-/-) mice): 7.21 nmol g-1 tissue
- Tissue level (stomach, 1 h after i.v. 5 mg kg-1 doxorubicin, wild-type mice): 7.68 nmol g-1 tissue
- Tissue level (stomach, 4 h after i.v. 5 mg kg-1 doxorubicin, mdr1a(-/-) mice): 11.2 nmol g-1 tissue
- Tissue level (stomach, 4 h after i.v. 5 mg kg-1 doxorubicin, wild-type mice): 7.40 nmol g-1 tissue
- Tissue level (stomach, 24 h after i.v. 5 mg kg-1 doxorubicin, mdr1a(-/-) mice): 5.82 nmol g-1 tissue
- Tissue level (stomach, 24 h after i.v. 5 mg kg-1 doxorubicin, wild-type mice): 3.25 nmol g-1 tissue
- Tissue level (uterus, 1 h after i.v. 5 mg kg-1 doxorubicin, wild-type mice): 7.98 nmol g-1 tissue
- Tissue level (uterus, 4 h after i.v. 5 mg kg-1 doxorubicin, mdr1a(-/-) mice): 8.07 nmol g-1 tissue
- Tissue level (uterus, 4 h after i.v. 5 mg kg-1 doxorubicin, wild-type mice): 12.1 nmol g-1 tissue
- Tissue level (uterus, 24 h after i.v. 5 mg kg-1 doxorubicin, mdr1a(-/-) mice): 12.9 nmol g-1 tissue
- Tissue level (uterus, 24 h after i.v. 5 mg kg-1 doxorubicin, wild-type mice): 6.78 nmol g-1 tissue
